Assay results as given in patent US9108951B2, “Substituted 5,6,7,8-tetrahydro-1,6-naphthyridines as factor XIa inhibitors” (BRISTOL-MYERS SQUIBB COMPANY, priority 2011, dated 2015).

Chains of the proteins cited; added tags and fusions are not shown. Residues count along the entry.
UniProt P03951, 388-625 limits assumed: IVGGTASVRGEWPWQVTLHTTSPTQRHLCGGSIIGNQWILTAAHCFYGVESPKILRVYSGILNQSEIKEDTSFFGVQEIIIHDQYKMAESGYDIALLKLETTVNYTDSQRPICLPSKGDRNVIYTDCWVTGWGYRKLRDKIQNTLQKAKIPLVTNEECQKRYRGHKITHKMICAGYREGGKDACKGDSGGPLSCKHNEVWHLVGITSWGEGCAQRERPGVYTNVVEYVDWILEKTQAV
UniProt P03951, 19-387 partner limits assumed: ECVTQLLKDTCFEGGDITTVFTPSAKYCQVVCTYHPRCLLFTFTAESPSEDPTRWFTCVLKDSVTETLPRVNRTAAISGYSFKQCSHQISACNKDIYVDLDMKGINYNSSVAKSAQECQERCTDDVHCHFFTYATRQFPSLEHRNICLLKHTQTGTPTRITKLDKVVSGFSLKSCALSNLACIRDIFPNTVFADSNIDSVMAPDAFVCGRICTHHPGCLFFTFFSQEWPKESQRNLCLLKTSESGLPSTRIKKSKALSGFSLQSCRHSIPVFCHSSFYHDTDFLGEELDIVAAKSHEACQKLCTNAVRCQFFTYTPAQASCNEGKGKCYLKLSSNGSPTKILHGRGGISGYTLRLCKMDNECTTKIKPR

Molecular target: purified human Factor XIa (Homo sapiens (Human), UniProt P03951)
Test: Factor XIa assay (chromogenic substrate hydrolysis, Ki)
Settings: read-out: Factor XIa Ki, synthetic substrate S-2366, 50 mM HEPES pH 7.4

COC(=O)c1ccc(NC(=O)C2c3cc(C)ccc3CCN2C(=O)/C=C/c2cc(Cl)ccc2-n2cnnn2)cc1 (racemic)
pKi: 5.29

pKi: −log10 of the molar value.
